Reference: paper PMC6882492, “Synthesis and biological evaluation of novel thienopyrimidine derivatives as diacylglycerol acyltransferase 1 (DGAT-1) inhibitors” (Journal of Enzyme Inhibition and Medicinal Chemistry, 2019)

The chains behind the UniProt entries cited, without tags or fusion partners.
UniProt O75907, whole entry: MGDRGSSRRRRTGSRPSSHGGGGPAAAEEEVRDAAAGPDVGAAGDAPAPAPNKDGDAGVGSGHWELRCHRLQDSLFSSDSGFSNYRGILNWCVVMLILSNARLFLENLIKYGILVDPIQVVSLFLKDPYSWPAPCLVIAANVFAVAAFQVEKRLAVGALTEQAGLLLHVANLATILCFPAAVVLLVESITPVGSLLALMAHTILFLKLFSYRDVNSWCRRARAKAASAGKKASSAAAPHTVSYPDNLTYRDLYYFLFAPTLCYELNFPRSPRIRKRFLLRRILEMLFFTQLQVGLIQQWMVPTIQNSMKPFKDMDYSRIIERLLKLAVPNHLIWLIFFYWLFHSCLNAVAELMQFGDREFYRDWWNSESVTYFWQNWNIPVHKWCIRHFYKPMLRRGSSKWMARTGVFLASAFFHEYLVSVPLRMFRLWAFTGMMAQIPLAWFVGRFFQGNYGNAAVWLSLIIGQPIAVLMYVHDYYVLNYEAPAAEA

Molecular target: human recombinant DGAT1 enzyme expressed in insect cells (SF9 cells) (Homo sapiens, UniProt O75907)
Test: DGAT-1 inhibition assay (IC50), SF9 microsomes
Conditions: read-out: IC50 DGAT-1 (SF9); SF9 insect cells expressing human DGAT-1; summary of Table 1
Experimental: The activity of DGAT-1 inhibitors in vitro was evaluated by using a human recombinant DGAT1 enzyme expressed in insect cells (SF9 cells). SF9 cells were homogenised by washing them with DPBS (Dulbecco’s phosphate-buffered saline) and then suspending cell pellets with a tris buffer (250 mM sucrose; 10 mM Tris-HCl [pH 7.4]; proteinase inhibitor). The resulting mixture was centrifugally separated at 10,000 × g for 30 min to remove the cell debris remaining in the lower layer thereof, and was centrifugally separated at 100,000 × g for 60 min to obtain a microsomal membrane. Further, membrane fractions were resuspended by the tris buffer, and then stored at -80 °C.
The activity of DGAT1 was measured according to the reported method. Specifically, 0.0001 – 10 μΜ (final concentration, FC) of the test compounds were cultured at room temperature (25 °C) for 15 min with a […] of SF9 microsomal protein solution and 100 mM of MgCl2 solution, and were then further cultured at room temperature (25 °C) for 30 min after the addition of 100 μΜ (FC in 12.5% EtOH) of 1,2-dioleyl-sn-glycerol and 30 μΜ (final conc.) of [14]C-oleyl coenzyme A. The reaction was completed by the addition of 300 μL of a mixed solution of 2-propanol/heptane (7:1), and radioactive triglyceride was separated from an organic solvent layer by using 200 μL of heptane and 200 μL of a 0.1 M carbonate buffer (pH 9.5). The amount of triglyceride was measured by liquid scintillography (Perkin Elmer, USA) after mixing with an organic solvent and an equivalent amount of scintillation solvent (MicroScint-O, Perkin Elmer, USA). The effects of inhibiting DGAT1 were calculated as percent in comparison with a control material.
The activities of synthesised compounds were evaluated using SF9 insect cells expressing human DGAT-1[22]. A potent DGAT-1 inhibitor, LCQ-908 (2 or pradigastat) was used as a positive control. […] The calculated lowest energy conformation model of 14c provided that the distance between the terminal carboxylic acid and NH of urea was over 16 Å, which may result in reduced activity. […]

IC50	Compound
> 1000 nM	O=C(O)CC1CCC(c2csc3c(-c4ccc(NC(=O)Nc5cncc(Br)c5)cc4)ncnc23)CC1 (stereo not drawn)
> 1000 nM	O=C(O)CC1CCC(c2csc3c(-c4ccc(NC(=O)c5ccc(C(F)(F)F)nc5)cc4)ncnc23)CC1 (stereo not drawn)
> 1000 nM	O=C(O)CC1CCC(c2csc3c(-c4ccc(NC(=O)Nc5cc(Cl)ccn5)cc4)ncnc23)CC1 (stereo not drawn)
